# Data as given in PMC8558867, “Development of BromoTag: A “Bump-and-Hole”–PROTAC System to Induce Potent, Rapid, and Selective Degradation of Tagged Target Proteins” (Journal of Medicinal Chemistry, 2021).
# How the values were obtained:
# BromoTag-Brd2 = experiment: Dose–response degradation assay (western blot, 6 h) in heterozygous BromoTag-Brd2 HEK293 cells; format: cell-based, human; details: for pDmax (%) (Ab: Brd4BD2 L387A) / pDmax (%) (Ab:Brd2): supplementary CSV; for Dmax (%) (Ab: Brd^4BD2 L387A) / Dmax (%) (Ab: BromoTag-Brd2): 6 h, eight-point 10 μM to 1 nM
# 22RV1 cells = experiment: CellTiter-Glo 2.0 cell viability assay, 22RV1; format: cell-based; details: Homo sapiens; 22RV1, 48 Hours, mean ±S.E.M, N = 2; read-out: pEC50 (cell viability) (converted)
# [1] = BromoTagged-Brd2, 6 h, diastereomeric mixtures
SMILES,Dmax (%) (Ab: Brd2) (BromoTag-Brd2; [1]),Dmax (%) (Ab: Brd4^BD2 L387A) (BromoTag-Brd2; [1]),pDmax (%) (Ab: Brd4BD2 L387A) (BromoTag-Brd2),pDmax (%) (Ab:Brd2) (BromoTag-Brd2),Dmax (%) (Ab: Brd^4BD2 L387A) (BromoTag-Brd2),Dmax (%) (Ab: BromoTag-Brd2) (BromoTag-Brd2),EC50 (22RV1 cells)
"CCC(C(=O)OCCOCCOCCOCC(=O)N[C@H](C(=O)N1C[C@H](O)C[C@H]1C(=O)NCc1ccc(-c2scnc2C)cc1)C(C)(C)C)C1N=C(c2ccc(Cl)cc2)c2c(sc(C)c2C)-n2c(C)nnc21 (relative stereo) [ET-OMZ1 (23), (S)-13-((2S,4R)-4-Hydroxy-2-((4-(4-methylthiazol-5-yl)benzyl)carbamoyl)pyrrolidine-1-carbonyl)-14,14-dimethyl-11-oxo-3,6,9-trioxa-12-azapentadecyl (R*)-2-((S*)-4-(4-chlorophenyl)-2,3,9-trimethyl-6H-thieno[3,2-f][1,2,4]triazolo[4,3-a][1,4]diazepin-6-yl)butanoate]",96%,90%,90%,96%,–,–,–
"CC[C@@H](C(=O)OCCOCCOCCOCC(=O)N[C@H](C(=O)N1C[C@H](O)C[C@H]1C(=O)NCc1ccc(-c2scnc2C)cc1)C(C)(C)C)[C@@H]1N=C(c2ccc(Cl)cc2)c2c(sc(C)c2C)-n2c(C)nnc21 [AGB1 (46), (S)-13-((2S,4R)-4-Hydroxy-2-((4-(4-methylthiazol-5-yl)benzyl)carbamoyl)pyrrolidine-1-carbonyl)-14,14-dimethyl-11-oxo-3,6,9-trioxa-12-azapentadecyl (R)-2-((S)-4-(4-chlorophenyl)-2,3,9-trimethyl-6H-thieno[3,2-f][1,2,4]triazolo[4,3-a][1,4]diazepin-6-yl)butanoate]",–,–,99%,97%,99%,97%,–
"CC[C@@H](C(=O)NCCOCCOCCOCC(=O)N[C@H](C(=O)N1C[C@H](O)C[C@H]1C(=O)NCc1ccc(-c2scnc2C)cc1)C(C)(C)C)[C@@H]1N=C(c2ccc(Cl)cc2)c2c(sc(C)c2C)-n2c(C)nnc21 [AGB3 (48), (2S,4R)-1-((2S,17R)-2-(tert-Butyl)-17-((S)-4-(4-chlorophenyl)-2,3,9-trimethyl-6H-thieno[3,2-f][1,2,4]triazolo[4,3-a][1,4]diazepin-6-yl)-4,16-dioxo-6,9,12-trioxa-3,15-diazanonadecanoyl)-4-hydroxy-N-(4-(4-methylthiazol-5-yl)benzyl)pyrrolidine-2-carboxamide]",–,–,92%,96%,92%,96%,–
CN[C@@H]1C[C@H]2O[C@@](C)([C@@H]1OC)n1c3ccccc3c3c4c(c5c6ccccc6n2c5c31)C(=O)NC4 [Staurosporine],–,–,–,–,–,–,251 nM
